This assay deals with SKOV3 ovarian cells. In words: Cytotoxicity against SKOV3 ovarian cancer cells (ATP content, CellTiter-Glo). Type of assay: cell-based. As to conditions: DAR ratio 3.39 (Synagis-SMCC-DM1), 3.50 (Trastuzumab-SMCC-DM1), 6.59 (IIIa), 6.99 (IIIc). The protocol:
SKOV3 ovarian cells are incubated with the effectors for a period corresponding to 2 to 3 times their estimated doubling time and the amount of viable cells is determine by measuring ATP content in the wells. ATP has been widely accepted as a valid marker of viable cells. When cells lose membrane integrity, they lose the ability to synthesize ATP and endogenous ATPases rapidly deplete any remaining ATP from the cytoplasm. All ADCs are diluted in DPBS to 6× the highest concentration tested, followed by 10 3-fold serial dilutions in DPBS for a total of 11 concentration points. Each point is added to triplicate wells. DPBS is added in wells to measure the maximum growth. Cells are diluted at their appropriate seeding density (ranging from 150 to 1000 cells per well) in complete media supplemented with glutamine 2 mM, serum and antibiotic cocktail. […] Total ATP is measured using CellTiter-Glo reagent from Promega as recommended by the supplier. […] Signal output is measured on a luminescence plate reader (envision, Perkin Elmer) set at an integration time of 0.1 sec. […]
Each concentration point (S) is normalized to the negative control wells (NC) and expressed as % survival (NC-S/NC×100). Potency (IC50) and efficacy are calculated from a non-linear curve fit of the points versus log of the concentrations without constrain on the slope. Refined data are analysed using Prism software. […]

For the substance Trastuzumab-SMCC-DM1, the half-maximal inhibitory concentration (IC50) is 0.038 nM.

As a reminder, the IC50 is the concentration that inhibits the measured activity by half.

The values are drawn from patent US11850287B2, “Heterocyclic acyl hydrazone linkers, methods and uses thereof” (Ontario Institute for Cancer Research (OICR), priority 2017, dated 2023).
